Values of other authors in PMC5517007.

Sequences of proteins named here, by UniProt entry; tags and fusion partners are left off. Residues count along the entry.
UniProt P43626, 22-245: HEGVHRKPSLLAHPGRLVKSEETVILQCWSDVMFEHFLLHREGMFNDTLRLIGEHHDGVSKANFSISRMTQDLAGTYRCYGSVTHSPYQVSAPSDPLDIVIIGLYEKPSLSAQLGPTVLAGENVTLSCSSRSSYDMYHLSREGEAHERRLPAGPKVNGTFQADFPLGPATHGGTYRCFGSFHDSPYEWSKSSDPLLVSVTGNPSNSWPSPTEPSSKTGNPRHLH
UniProt P43628, 22-245: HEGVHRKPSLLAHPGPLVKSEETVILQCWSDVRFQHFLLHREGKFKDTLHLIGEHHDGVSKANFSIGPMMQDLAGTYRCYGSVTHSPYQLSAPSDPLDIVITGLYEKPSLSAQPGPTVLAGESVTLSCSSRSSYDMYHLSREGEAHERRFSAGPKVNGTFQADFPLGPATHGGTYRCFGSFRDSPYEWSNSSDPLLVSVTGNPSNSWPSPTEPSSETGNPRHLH

How the values were obtained:
KIR2DL1 (Homo sapiens) = KIR2DL1 (Homo sapiens) (UniProt P43626); assay: SPR
KIR2DL3 (Homo sapiens) = KIR2DL3 (Homo sapiens) (UniProt P43628); assay: SPR

## lirilumab
KIR2DL1 (Homo sapiens)
  Kd: 0.43 nM
KIR2DL3 (Homo sapiens)
  Kd: 0.025 nM
